Earlier results in US20040236125A1, “Novel structures and compositions comprising sterols and/or stanols and specific classes of anti-inflammatory agents and use thereof in treating or preventing cardiovascular disease, its underlying conditions including hyperlipidemia and other disorders having inflammation as part of their …” (FORBES MEDI-TECH INC., priority 2002, published 2004).

The chains behind the UniProt entries cited, without tags or fusion partners. Residues count along the entry.
UniProt P79208, 17-603: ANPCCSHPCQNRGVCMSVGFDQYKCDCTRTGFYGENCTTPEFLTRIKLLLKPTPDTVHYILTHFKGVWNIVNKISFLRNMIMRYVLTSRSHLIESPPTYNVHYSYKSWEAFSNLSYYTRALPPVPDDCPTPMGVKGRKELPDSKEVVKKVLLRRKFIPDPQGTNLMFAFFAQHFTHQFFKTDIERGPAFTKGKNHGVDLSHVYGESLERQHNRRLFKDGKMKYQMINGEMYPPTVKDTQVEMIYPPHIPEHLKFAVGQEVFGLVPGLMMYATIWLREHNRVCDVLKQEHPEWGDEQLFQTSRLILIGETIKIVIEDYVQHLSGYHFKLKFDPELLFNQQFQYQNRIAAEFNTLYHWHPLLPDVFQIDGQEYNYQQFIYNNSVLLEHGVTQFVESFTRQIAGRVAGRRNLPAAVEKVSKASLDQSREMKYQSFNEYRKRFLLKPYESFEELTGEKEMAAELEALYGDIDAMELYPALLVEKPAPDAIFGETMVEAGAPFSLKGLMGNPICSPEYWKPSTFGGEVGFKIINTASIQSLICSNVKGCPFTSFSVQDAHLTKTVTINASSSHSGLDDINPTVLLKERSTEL

Biological target: COX-2 (Ovis aries, UniProt P79208)
Conditions: read-out: IC50 (inhibitor of COX-2); reference inhibitor, FIG. 5 legend; cited from earlier work

CS(=O)(=O)c1ccc(-c2cc(Br)sc2-c2ccc(F)cc2)cc1 [DuP-697]
IC50: 50 nM
